The conditions of data set [1]: human skin, vs without a patch.
The conditions of data set [2]: pig skin.

Like-named read-outs stand apart in the source and are kept apart here.

Turning to `CCN(CC)c1ccc2c(-c3ccccc3C(=O)O)c3ccc(=[N+](CC)CC)cc-3oc2c1.[Cl-]` [rhodamine B], the “delivery depth improved compared to w/o patch” value is recorded as “up to 31%” in data set [1] (30 minutes after removal of the patch); “up to 56%” in data set [1] (after 30 minutes of patch application); “up to 36%” in data set [2] (30 minutes after removal of the d-SCC following 30 minutes of application, vs without a patch); “up to 44%” in data set [2] (d-SCC applied for 30 minutes, vs fluorescent particles applied without a patch). The “delivery depth of the fluorescent particles (rhodamine B)” value in data set [2] (30 minutes after removal of the d-SCC following 30 minutes of application) is listed as “over 150 μm”; in data set [2] (d-SCC applied for 30 minutes), “approximately 130 μm”.

Source of the values: patent US20250255832A1, “SKIN ADHESIVE PATCH FOR NEGATIVE PRESSURE STIMULATION AND MANUFACTURING METHOD THEREFOR” (Research & Business Foundation Sungkyunkwan University, priority 2022, published 2025).
